# Apparent affinities of Ab-14 variants for a coronavirus HR2 peptide

Antigen: PDVDLGDISGINAS, a 14-residue peptide of the SARS-CoV-2 spike HR2 region.

Parent scFv Ab-14: VH joined to VL by a (GGGGS)3 linker. Changes lie in the light chain CDRs alone.
VH: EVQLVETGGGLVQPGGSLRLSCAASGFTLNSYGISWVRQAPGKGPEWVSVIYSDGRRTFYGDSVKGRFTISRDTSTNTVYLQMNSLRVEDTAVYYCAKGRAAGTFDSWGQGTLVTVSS
VL: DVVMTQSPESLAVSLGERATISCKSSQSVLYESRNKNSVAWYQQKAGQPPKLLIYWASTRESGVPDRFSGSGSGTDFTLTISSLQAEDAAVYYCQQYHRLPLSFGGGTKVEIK

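Variants in AAYL50 differ from the parent at up to three CDR positions; double and triple changes were sampled at random. The scFvs were displayed on barcoded MATa yeast, the peptide on MATalpha yeast. Binding brings cells together so that they mate, and sequencing counts the barcode pairs among the diploids. A regression on co-assayed BCL2-family reference pairs converts the normalised counts of each replicate to an apparent Kd. Mating was done three times.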

Changes read parent residue, position, new residue, counted from the first residue of the VL shown.
All variants listed here change R99 of the VL, counted from its first residue.
The read-out is the apparent dissociation constant on a log10 scale (nM): the lower, the stronger.
The mean shown is taken over the replicates in which the pair was detected.
A pair that was not seen in any replicate is written "nd"; this usually means weak binding, but a binder can also be missed.
Entries are sorted by rising average, undetected variants last.

The variant Y31E+K36I+R99F gave 0.69 (3 of 3 replicates; controls 1 of 9). The variant S28E+H98K+R99I showed 0.85 (3 of 3 replicates; controls 2 of 9). With R34G+E61T+R99Q the result was 0.90 (3 of 3 replicates; controls 0 of 9). With W56N+R99E the result was 1.36 (3 of 3 replicates; controls 0 of 9). For K24I+E61M+R99N, the assay gave 1.53 (2 of 3 replicates; controls 0 of 9). For S62C+R99E, the assay gave 1.63 (3 of 3 replicates; controls 0 of 9).

For S62Q+R99H, the assay gave 1.64 (3 of 3 replicates; controls 1 of 9). For R34Y+T59K+R99N, the assay gave 1.70 (3 of 3 replicates; controls 1 of 9). The variant Q27V+S33I+R99S showed 1.73 (3 of 3 replicates; controls 1 of 9). For S38G+R99K+L102M, the assay gave 1.82 (3 of 3 replicates; controls 1 of 9). The variant W56H+S58L+R99F showed 1.97 (3 of 3 replicates; controls 3 of 9). For S26R+S38V+R99E, the assay gave 1.97 (3 of 3 replicates; controls 2 of 9).

The variant E32Y+R99I gave 2.28 (3 of 3 replicates; controls 3 of 9). With S25H+R99G+P101G the result was 2.31 (3 of 3 replicates; controls 1 of 9). With N37G+T59F+R99N the result was 2.33 (3 of 3 replicates; controls 2 of 9). For V29Y+R99N, the assay gave 2.53 (3 of 3 replicates; controls 5 of 9). For S33D+V39C+R99N, the assay gave 2.65 (3 of 3 replicates; controls 1 of 9). With N35Y+Q95M+R99Y the result was 2.67 (1 of 3 replicates; controls 1 of 9).

With S33V+R99L the result was 3.00 (3 of 3 replicates; controls 6 of 9). The variant S26H+K36W+R99L gave 3.09 (3 of 3 replicates; controls 3 of 9). The variant S38Q+R99N+L100M showed 3.20 (3 of 3 replicates; controls 7 of 9). The variant K36G+N37T+R99T showed 3.32 (3 of 3 replicates; controls 1 of 9). With Q27C+Q96K+R99C the result was 3.62 (2 of 3 replicates; controls 1 of 9). The variant S62R+R99A+P101M showed 3.63 (1 of 3 replicates; controls 1 of 9).

The variant A57Q+R99H+S103L showed 3.71 (2 of 3 replicates; controls 0 of 9). The variant K36W+E61N+R99Y showed 4.22 (2 of 3 replicates; controls 4 of 9). The variant K24Q+V39R+R99I gave 4.27 (1 of 3 replicates; controls 2 of 9). The variant H98K+R99G+S103R showed 4.28 (3 of 3 replicates; controls 9 of 9). For S26G+R99K+L100Q, the assay gave 4.37 (2 of 3 replicates; controls 0 of 9). The variant S26Q+S58F+R99C showed 4.46 (1 of 3 replicates; controls 1 of 9).

The variant N37G+A57E+R99W gave 4.52 (2 of 3 replicates; controls 1 of 9). The variant S33A+R60Y+R99Y showed 5.21 (2 of 3 replicates; controls 3 of 9). The variant Q95W+Y97I+R99T showed 6.02 (1 of 3 replicates; controls 3 of 9). The variant E32W+T59R+R99T gave nd (0 of 3 replicates; controls 0 of 9). The variant R99M+P101D+L102R gave nd (0 of 3 replicates; controls 0 of 9). The variant K36F+Y97P+R99S gave nd (0 of 3 replicates; controls 0 of 9).

With S26L+E32K+R99S the result was nd (0 of 3 replicates; controls 3 of 9). For Q27N+Y31Q+R99Q, the assay gave nd (0 of 3 replicates; controls 1 of 9). The variant R60S+Q95P+R99K gave nd (0 of 3 replicates; controls 0 of 9). With L30M+S33E+R99A the result was nd (0 of 3 replicates; controls 0 of 9). For S26Q+L30C+R99W, the assay gave nd (0 of 3 replicates; controls 0 of 9). With R34Y+R99N+L102N the result was nd (0 of 3 replicates; controls 1 of 9).

With N35K+R99E+L100D the result was nd (0 of 3 replicates; controls 0 of 9). With Y31V+R99Q+L100E the result was nd (0 of 3 replicates; controls 2 of 9). The variant R34E+R99A+P101N gave nd (0 of 3 replicates; controls 0 of 9). With S26D+V39L+R99P the result was nd (0 of 3 replicates; controls 1 of 9). For Y97T+R99K+L102G, the assay gave nd (0 of 3 replicates; controls 0 of 9).

Extract of 3 entries:

changes	mean log10 Kd (nM)	detected	empty controls
Q95W+Y97I+R99T	6.02	1 of 3	3 of 9
S26Q+S58F+R99C	4.46	1 of 3	1 of 9
Y97T+R99K+L102G	nd	0 of 3	0 of 9

Background: pairings of library AAYL50 with three empty control strains gave a value in 18% of cases (median 4.19, 5th percentile 2.99). Values in that range, when seen in few replicates, are hard to tell from nonspecific mating. For each scFv, signals with the empty controls are counted beside the result.

Data: MIT Lincoln Laboratory AlphaSeq set, Engelhart et al. 2022, doi:10.1038/s41597-022-01779-4, as distributed in FLAb.